Results as given in patent US20190328887A1.

Chains of the proteins cited; added tags and fusions are not shown. Lines headed by an entry give the natural chain unless they say otherwise; changes in a name come on top.
UniProt Q9ULZ1: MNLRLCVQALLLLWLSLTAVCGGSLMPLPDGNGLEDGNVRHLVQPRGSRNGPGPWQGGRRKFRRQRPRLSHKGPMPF

Biological target: human APJ (apelin) receptor (human) (UniProt P35414)

IC50 cAMP: 24 nM
Substance: pE13F (from UniProt Q9ULZ1) (peptide)
